{"sequences": {"note": "Amino acid sequences for entries named in this document (tags omitted).", "UniProt Q932Y6, whole entry": "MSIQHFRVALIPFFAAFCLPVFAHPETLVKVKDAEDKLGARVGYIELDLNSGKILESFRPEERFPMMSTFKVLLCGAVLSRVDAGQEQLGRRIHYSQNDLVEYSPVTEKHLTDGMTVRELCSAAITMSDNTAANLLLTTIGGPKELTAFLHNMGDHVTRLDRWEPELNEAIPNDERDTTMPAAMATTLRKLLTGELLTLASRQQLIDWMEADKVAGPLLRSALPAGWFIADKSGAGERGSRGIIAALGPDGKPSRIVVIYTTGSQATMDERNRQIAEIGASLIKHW"}, "source": "BindingDB's records for doi:10.7270/Q2XS5T0R", "about": "(The Scripps Research Institute Molecular Screening Center, 2012)", "target": "Beta-lactamase (Pseudomonas aeruginosa, UniProt Q932Y6)"}
{"smiles": "O=c1c(Cl)c(Cl)cnn1Cc1nnc(-c2ccccc2Br)o1", "values": [{"measurement": "IC50", "value": "> 49.8", "unit": "µM"}]}
